Reference: patent US7528274B2, “Acylthiols and component thiol compositions as anti-HIV and anti-retroviral agents” (The United States of America as represented by the …, priority 2001, dated 2009)

Legend:
Assay type in all cases: cell-based
HIV-1 (RoJo) = details: HIV-1 (RoJo/PBMCs)
From the text: (§1) One exemplary means to determine antiviral activity is with CEM-SS cells and virus (e.g., HIV-1RF) (MOI=0.01) using the XTT {2,3-bis[2-methoxy-4-nitro-5-sulfophenyl]-5- -[(phenylamino)carbonyl]-2H-tetrazolium hydroxide} cytoprotection assay, as described by Rice (1993) Proc. Natl. Acad. Sci. USA 90: 9721-9724, and Rice (1997) Antimicrob. Agents & Chemother. […] Briefly, cells are infected with HIV-1RF (or other virus to be tested) in the presence of various dilutions of test compounds and controls. The cultures are incubated for seven days. […] The cell death is measured by XTT dye reduction. XTT is a soluble tetrazolium dye that measures mitochondrial energy output, similar to MTT. […] Individual assays are done in duplicate using a sister plate method. […] Compound numbers therein refer to the numbers used in FIG. 1.

HIV-2 (Rod) = test: XTT cytoprotection assay, HIV-2 (Rod/CEM-SS)
From the text: as §1

SIV (Mac 251) = test: XTT cytoprotection assay, SIV (Mac 251)
From the text: as §1

## Cc1cn([C@H]2C[C@H](N=[N+]=[N-])[C@@H](CO)O2)c(=O)[nH]c1=O [AZT, 3′-azido-2′, 3′-dideoxythymidine, reference compound]
HIV-1 (RoJo)
  Therapeutic Index: >400
HIV-2 (Rod)
  Therapeutic Index: >61
SIV (Mac 251)
  Therapeutic Index: >40
